Experimental data from article PMC7547737.

Sequences of proteins named here, by UniProt entry; tags and fusion partners are left off.
UniProt P31749, whole entry P313A/P318A: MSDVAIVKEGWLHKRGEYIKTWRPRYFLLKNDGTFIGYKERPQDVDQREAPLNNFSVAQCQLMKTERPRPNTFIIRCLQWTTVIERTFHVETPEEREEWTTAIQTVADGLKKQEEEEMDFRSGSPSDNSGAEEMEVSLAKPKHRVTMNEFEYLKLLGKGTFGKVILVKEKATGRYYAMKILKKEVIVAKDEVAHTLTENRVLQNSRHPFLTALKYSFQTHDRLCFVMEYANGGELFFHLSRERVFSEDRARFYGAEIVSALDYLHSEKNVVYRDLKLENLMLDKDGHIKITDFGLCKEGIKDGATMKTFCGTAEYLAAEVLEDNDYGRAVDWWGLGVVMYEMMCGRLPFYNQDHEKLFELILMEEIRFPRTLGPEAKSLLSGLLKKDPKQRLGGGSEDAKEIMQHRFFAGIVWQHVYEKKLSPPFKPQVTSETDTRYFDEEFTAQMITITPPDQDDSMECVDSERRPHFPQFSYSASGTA
UniProt P31749, whole entry T308D: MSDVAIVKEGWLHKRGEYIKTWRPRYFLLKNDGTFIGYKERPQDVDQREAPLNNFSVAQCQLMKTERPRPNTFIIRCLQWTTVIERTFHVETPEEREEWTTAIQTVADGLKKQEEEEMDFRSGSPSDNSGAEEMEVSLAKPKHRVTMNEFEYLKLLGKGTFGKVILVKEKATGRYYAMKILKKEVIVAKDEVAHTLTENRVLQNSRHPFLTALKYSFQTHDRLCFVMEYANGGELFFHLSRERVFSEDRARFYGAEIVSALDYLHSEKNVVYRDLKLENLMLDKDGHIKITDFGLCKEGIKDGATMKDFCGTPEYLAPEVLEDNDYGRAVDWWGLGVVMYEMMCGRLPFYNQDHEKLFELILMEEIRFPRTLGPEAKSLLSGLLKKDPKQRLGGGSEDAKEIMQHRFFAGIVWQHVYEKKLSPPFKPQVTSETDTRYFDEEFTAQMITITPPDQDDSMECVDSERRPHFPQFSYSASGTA
UniProt P31749, whole entry P318A: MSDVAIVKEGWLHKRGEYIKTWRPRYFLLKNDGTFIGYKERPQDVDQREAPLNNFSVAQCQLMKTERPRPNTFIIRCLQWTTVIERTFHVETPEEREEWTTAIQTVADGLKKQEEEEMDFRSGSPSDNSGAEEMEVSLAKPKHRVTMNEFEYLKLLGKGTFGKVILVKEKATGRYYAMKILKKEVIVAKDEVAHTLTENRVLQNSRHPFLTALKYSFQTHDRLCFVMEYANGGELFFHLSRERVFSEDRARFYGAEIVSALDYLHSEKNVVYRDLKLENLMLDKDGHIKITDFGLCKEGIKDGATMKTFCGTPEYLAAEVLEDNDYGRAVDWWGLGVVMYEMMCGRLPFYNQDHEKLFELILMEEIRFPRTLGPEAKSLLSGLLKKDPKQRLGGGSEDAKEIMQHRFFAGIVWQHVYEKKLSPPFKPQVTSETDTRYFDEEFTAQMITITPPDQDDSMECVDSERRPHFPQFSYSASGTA
UniProt P31749, whole entry T308A: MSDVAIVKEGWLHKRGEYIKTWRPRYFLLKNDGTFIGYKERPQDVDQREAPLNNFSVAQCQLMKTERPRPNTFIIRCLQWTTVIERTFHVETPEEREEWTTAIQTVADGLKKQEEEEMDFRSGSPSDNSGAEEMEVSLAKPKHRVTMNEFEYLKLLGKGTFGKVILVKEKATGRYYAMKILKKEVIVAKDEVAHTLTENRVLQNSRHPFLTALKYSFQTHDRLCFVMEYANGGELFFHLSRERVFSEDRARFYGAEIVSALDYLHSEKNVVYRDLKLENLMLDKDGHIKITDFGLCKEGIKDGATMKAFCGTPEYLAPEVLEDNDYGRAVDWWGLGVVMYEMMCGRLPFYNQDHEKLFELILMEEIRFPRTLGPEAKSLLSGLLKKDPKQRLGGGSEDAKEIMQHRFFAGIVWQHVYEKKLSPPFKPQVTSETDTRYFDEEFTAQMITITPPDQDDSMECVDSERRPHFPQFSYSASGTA
UniProt P62937, whole entry: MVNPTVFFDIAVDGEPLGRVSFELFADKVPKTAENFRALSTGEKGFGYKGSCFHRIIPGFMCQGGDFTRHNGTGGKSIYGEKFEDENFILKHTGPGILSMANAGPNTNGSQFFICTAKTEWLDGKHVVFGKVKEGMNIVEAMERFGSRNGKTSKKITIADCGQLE

Tests used:
[1] = biological target: phospho-Thr308 AKT (human (endogenous in SK-Br3)) (UniProt P31749); assay: co-IP; SK-Br3 cells untreated, or treated with TZ or TZ/U0126 for 20 min, cross-linked with DSP; lysate precipitated with anti-phospho-Thr308 AKT antibody on protein G dynabeads; Western blot, amounts normalised on the precipitated protein and on untreated cells
FLAG-AKT^P313A/P318A = FLAG-AKT^P313A/P318A (UniProt P31749); assay: co-IP; SK-Br3 cells transfected with FLAG-tagged AKT constructs, starved with U0126, treated with TZ 20 min, cross-linked with DSP; anti-FLAG magnetic beads, 3 h at 4 °C; Western blot, amounts normalised on precipitated protein and input
FLAG-AKT^T308D = FLAG-AKT^T308D (UniProt P31749); assay: as above
FLAG-AKT^P318A = FLAG-AKT^P318A (UniProt P31749); assay: as above
FLAG-AKT^T308A = FLAG-AKT^T308A (UniProt P31749); assay: as above

fold co-precipitated, TZ-treated against untreated cells [1]: 2 fold
percent reduction of the interaction against wt AKT (FLAG-AKT^P313A/P318A): 60%
percent co-precipitated against wt AKT (FLAG-AKT^T308D): 50%
percent reduction of the interaction against wt AKT (FLAG-AKT^P318A): 60%
percent co-precipitated against wt AKT (FLAG-AKT^T308A): 50%
Substance: peptidyl-prolyl cis–trans isomerase A (Cyclophilin A) (from UniProt P62937 1-165) (enzyme)
